For 1 molecule, MIC results are on record in DBAASP.

This test relates to Staphylococcus aureus ATCC 12600. Description: ≥ marks a high value that may be exact or a test limit, other limits are often not marked, values filed in µg/mL are converted to µM.

In turn, `CC(C)C[C@H](NC(=O)[C@H](CC(C)C)NC(=O)[C@H](CCCN=C(N)N)NC(=O)[C@H](CC(C)C)NC(=O)[C@H](CC(C)C)NC(=O)[C@H](CCCN=C(N)N)NC(=O)[C@H](CCCN=C(N)N)NC(=O)[C@H](CC(C)C)NC(=O)[C@H](CC(C)C)NC(=O)[C@H](CCCN=C(N)N)NC(=O)[C@H](CC(C)C)NC(=O)[C@H](CC(C)C)NC(=O)[C@H](CCCN=C(N)N)NC(=O)[C@H](CC(C)C)NC(=O)[C@H](CCCN=C(N)N)NC(=O)[C@H](CC(C)C)NC(=O)[C@H](CCCN=C(N)N)NC(=O)[C@H](CCCN=C(N)N)NC(=O)[C@@H](N)CC(C)C)C(=O)O` [LRRLRLRLLRLLRRLLRLL] came in with an MIC not below 128 µM.

For orientation: MIC means the lowest concentration that inhibits growth of the organism. Low readings indicate greater potency, high ones weaker potency.
